Results on one compound are retold here after ChEMBL document CHEMBL4316596, “Antimicrobial Peptides with High Proteolytic Resistance for Combating Gram-Negative Bacteria” (J Med Chem, 2019).

This experiment can be described thus: Cytotoxicity against IPECJ2 cells assessed as cell death after 18 to 24 hrs by MTT assay. The experiment is classed as cell-based. As to conditions: Sus scrofa, IPEC-J2.

As a reminder, the IC50 is the concentration that inhibits the measured activity by half. With `CC[C@H](C)[C@H](NC(=O)CN)C(=O)NCC(=O)N[C@@H](C)C(=O)N[C@H](C(=O)N[C@@H](CC(C)C)C(=O)N[C@@H](CCCCN)C(=O)N[C@H](C(=O)N[C@@H](CC(C)C)C(=O)N[C@H](C(=O)N[C@H](C(=O)NCC(=O)N[C@@H](CC(C)C)C(=O)N1CCC[C@H]1C(=O)N[C@@H](C)C(=O)N[C@@H](CC(C)C)C(=O)N[C@H](C(=O)N[C@@H](CO)C(=O)N[C@@H](Cc1c[nH]c2ccccc12)C(=O)N[C@H](C(=O)N[C@@H](CCCCN)C(=O)N[C@@H](CCCNC(=N)N)C(=O)N[C@@H](CCCCN)C(=O)N[C@@H](CCCNC(=N)N)C(=O)N[C@@H](CCC(N)=O)C(=O)N[C@@H](CCC(N)=O)C(N)=O)[C@@H](C)CC)[C@@H](C)CC)[C@@H](C)O)[C@@H](C)O)C(C)C)C(C)C` [MELITTIN], the IC50 amounted to 2860 nM.
